One compound from patent publication US9725457B2, “6-amido derivatives of 4, 5-a epoxymorphinans for the treatment of pain” (Sloan-Kettering Institute for Cancer Research, priority 2010, dated 2017) can be followed below.

In this series the test system is mice. Put plainly: Tolerance studies and effects of chronic administration (cross tolerance, precipitated withdrawal). The procedure: Tail-flick latencies were determined before and 30 minutes after each injection. See Gistrak et al. (1989) op. cit. […] Similarly, a group of mice (n=10) were made tolerant to test compound by twice daily injections to 1 mg/kg, s.c. for 10 days. […] Animals were evaluated for signs of diarrhea and jumping. See Gistrak et al. (1989) op. cit.

`CN1CC[C@]23c4c5ccc(O)c4O[C@H]2[C@@H](O)C=C[C@H]3[C@H]1C5` [morphine, reference compound]: the “physical dependence (withdrawal on challenge with an antagonist after chronic administration)” value is “prompt and dramatic signs of withdrawal”.
